# Source: PubChem BioAssay AID504810 (National Center for Advancing Translational Sciences (NCATS), 2011)
# The chains behind the UniProt entries cited, without tags or fusion partners.
# UniProt P16473, whole entry, looked up: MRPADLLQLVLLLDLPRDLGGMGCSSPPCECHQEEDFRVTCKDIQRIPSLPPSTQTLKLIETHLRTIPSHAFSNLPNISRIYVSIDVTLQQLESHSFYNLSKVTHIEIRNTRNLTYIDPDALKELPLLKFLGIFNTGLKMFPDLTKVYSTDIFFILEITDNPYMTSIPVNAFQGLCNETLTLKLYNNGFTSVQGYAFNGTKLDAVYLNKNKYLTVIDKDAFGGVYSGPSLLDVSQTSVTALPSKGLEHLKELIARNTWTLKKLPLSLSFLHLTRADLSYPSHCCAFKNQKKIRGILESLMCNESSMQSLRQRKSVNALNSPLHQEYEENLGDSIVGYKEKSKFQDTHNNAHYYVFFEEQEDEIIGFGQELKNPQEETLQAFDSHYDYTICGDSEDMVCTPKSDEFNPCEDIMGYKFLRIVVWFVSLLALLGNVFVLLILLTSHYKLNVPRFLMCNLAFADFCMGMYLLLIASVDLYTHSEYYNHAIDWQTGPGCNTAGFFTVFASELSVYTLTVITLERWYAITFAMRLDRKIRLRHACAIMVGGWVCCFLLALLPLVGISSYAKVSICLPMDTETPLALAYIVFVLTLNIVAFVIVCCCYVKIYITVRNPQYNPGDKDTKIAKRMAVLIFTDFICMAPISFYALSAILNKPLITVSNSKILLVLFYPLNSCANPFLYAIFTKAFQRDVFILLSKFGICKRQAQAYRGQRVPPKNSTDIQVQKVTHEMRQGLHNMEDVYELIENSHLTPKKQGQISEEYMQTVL
# Several values for one entry are separate records, joined by “and”; a condition that tells them apart may be missing. Identical values can stand only once. The entries are a selection whose mix differs from that of the whole data set. Activity calls are given as the source filed them.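 Rule for the calls: active = activity change below a set negative limit, meaning inhibition stronger than a set level (cut at about -70% in these data); inconclusive = activity change between two set negative limits; inactive = the rest.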
# Target: Thyrotropin receptor (Homo sapiens) (UniProt P16473)
# Assay: Antagonists of the Thyroid Stimulating Hormone Receptor: HTS campaign
# Conditions: TSHR-expressing cells, TSH-stimulated cAMP HTRF, 2 h; at 11.5 µM; stronger effect = lower value
# Excerpt: The thyroid-stimulating hormone receptor (TSHR) is a member of the 7 trans-membrane-spanning receptor (7TMR) family of cell surface receptors. TSHR-mediated hyperthyroidism is important in thyroid pathology. The development of small molecule antagonists of TSHR may lead to therapeutic approaches for TSHR-mediated hyperthyroidism caused by constitutively activating mutations or stimulating auto-antibodies associated with Graves' disease. Graves' disease is the leading cause of hyperthyroidism and is caused by autoantibodies that stimulate TSHR (TsAbs) causing thyroid growth and unregulated overproduction of thyroid hormones and existing treatments have liabilities (agranulocytosis). In addition, TSHRs are known to be expressed in multiple extrathyroidal tissues including bone, brain, kidney, testis, fat and cells of the immune system but the role of the TSHR in these tissues is not clear. Therefore, TSHR antagonists/inverse agonists could be used as probes of extrathyroidal TSHR function. Finally, TSHR inverse agonists, which are a subclass of antagonists that inhibit agonist-independent (or basal or constitutive) TSHR signaling, could be used to inhibit TSH-independent signaling in patients with recurrent or metastatic thyroid cancer who are receiving thyroid hormone to suppress TSH. In collaboration between scientist from the NCGC and the NIDDK, a miniaturized HTRF high-throughput screen was developed. It's a cell based assay, where an anti cAMP antibody contains a fluorescent cryptate tag (excitation 337 nm; emission 620 nm) and the acceptor is cAMP-d2 (excitation 620 nm; emission 665 nm). When antibody and cAMP-d2 interact and are excited by a 337 nm light, a FRET occurs resulting in emission at 665 nm. The assay is competition between cAMP-d2 and cAMP (from the cell lysate). The homogeneous protocol allows for one step dispense after stimulation that is automation friendly. NIH Chemical Genomics Center [NCGC] NIH Molecular Libraries Probe Centers Network [MLPCN] MLPCN Grant: MH090855-01 Assay Submitter (PI): Marvin Gerhengorn
# 1. 3ul of 200 TSHR freshly harvested cells/well are dispensed into a 1536 TC-treated white solid bottom plate. 2. Through pintool addition, 23nl of compounds and control in 100% DMSO are added to the plate. 3. Then 1ul of EC80 TSH (4nM final) is added to the plate. 4. Assay is incubated at 37 deg C for 2 hours. 5. 2ul of cAMP antibody diluted 1:20 in lysis buffer is added. 6. Immediately following, 2ul of d2 diluted 1:20 in HBSS is added seperately. 7. The assay is incubated for 30 minutes at ambient room temperature. 8. The result is obtained by using a ViewLux read-out with HTRF settings.
# % is set by controls: 0 for no effect and ±100 for the full control effect.
row,Compound,"activity change, negative = inhibition"
1,C[C@H]1OP(=O)(Oc2ccccc2)C[C@@H]2O[C@@H]21 (some centres undefined),inactive: -1.47%
2,C[C@@H]1C=CCP(=O)(Oc2ccccc2)O1 (some centres undefined),inactive: -6.9%
3,Cc1ccccc1CN(C)C(=O)COC(=O)C(O)(c1ccccc1)c1ccccc1,inactive: -9.42%
4,CC(=O)c1ccc(N2CC2c2ccncc2)cc1 (centres undefined),inactive: -0.614%
5,CC(=O)Nc1ccc(Oc2c([N+](=O)[O-])cc([N+](=O)[O-])cc2[N+](=O)[O-])cc1,inactive: -3.81%
6,CC(=O)Nc1ccc([As](=O)(O)O)c(O)c1,inactive: 4.77%
7,O=P1(Nc2nc3ccc(Cl)cc3s2)COc2ccccc2O1 (centres undefined),inactive: -0.217%
8,CC(C)(C)C(=O)NC(Sc1ccccc1)C(Cl)(Cl)Cl (centres undefined),inactive: -0.188%
9,CCC(=O)N1C2C3N(C(=O)CC)C1C1N(C(=O)CC)C(C(N1C(=O)CC)N3C(=O)CC)N2C(=O)CC,inactive: -9.18%
10,O=C(OC1CN2CCC1CC2)c1ccccc1 (centres undefined),inactive: 11.7%
11,Cc1ccc(OP(=O)(Nc2ccccn2)Oc2ccc(C)cc2)cc1,inactive: -9.54%
12,CC(=O)NC(SC(=S)N(CC(C)C)CC(C)C)C(Cl)(Cl)Cl (centres undefined),inactive: 5.55%
13,COC(=O)c1cc2c(s1)N=C(c1ccccc1)N(C)P2(=O)N1CCOCC1 (centres undefined),inactive: 2.99%
14,CN(C)C(=O)Oc1noc2ccccc12,inactive: 2.15%
15,CC(NC(=O)COC(=O)C(O)(c1ccccc1)c1ccccc1)c1ccccc1 (centres undefined),inactive: -8.21%
16,Cc1ccccc1OP(=O)(Nc1ccccn1)Oc1ccccc1C,inactive: -3.35%
17,CCOC(=O)NC(Sc1ccccc1)C(Cl)(Cl)Cl (centres undefined),inactive: -7.21%
18,Cc1ccc(NP(=O)(Oc2cccc(C)c2)Oc2cccc(C)c2)nc1,inactive: 3.38%
19,c1ccc(-c2nn[nH]n2)c(-c2nn[nH]n2)c1,inactive: 38%
20,O=C(NC1CCS(=O)(=O)C1)NP(=S)(Oc1ccccc1)Oc1ccccc1 (centres undefined),inactive: -2.97%
21,CCNC(=S)/N=C(\N)N[N+](=O)[O-],inactive: 13%
22,O=[As](O)(c1ccccc1)c1ccc(O)cc1,inactive: 7.58%
23,O=[N+]([O-])c1ncn(CCn2cnc([N+](=O)[O-])n2)n1,inactive: -3.41%
24,CC(=O)NC(SC(=S)N(C)C)C(Cl)(Cl)Cl (centres undefined),inactive: -0.256%
25,O=[N+]([O-])c1ccc(O)c(/C=N/Nc2ccc([N+](=O)[O-])cc2[N+](=O)[O-])c1,active: -73.4%

row,Compound,"activity change, negative = inhibition"
1,O=C(OC1CN2CCC1CC2)c1cccc(Cl)c1 (centres undefined),inactive: 1.34%
2,C(Cc1nn[nH]n1)Cc1nn[nH]n1,inactive: 23.4%
3,Nc1ccc([As](=O)(O)c2ccc([N+](=O)[O-])cc2)cc1,inactive: 1.18%
4,CN(C)C1(CNC(=O)c2ccc(Cl)c(S(N)(=O)=O)c2)CCCCC1,inactive: 11.3%
5,O=P(Nc1ccccn1)(c1ccc(Br)cc1)c1ccc(Br)cc1,inactive: 6.78%
6,C[C@H]1OP(=O)(Oc2ccccc2)[C@H](O)[C@H](O)[C@H]1N=[N+]=[N-] (some centres undefined),inactive: -4.19%
7,O=P(Nc1nc2ccccc2s1)(c1ccccc1)c1ccccc1,inactive: -2.51%
8,O=P(Nc1nccs1)(c1ccccc1)c1ccccc1,inactive: 5.67%
9,CC(C)C(=O)NC(Sc1ccccc1)C(Cl)(Cl)Cl (centres undefined),inactive: -10.6%
10,c1nnnn1CCn1cnnn1,inactive: -3.52%
11,CCN(/C(=N/P(=O)(N1CCOCC1)N1CCOCC1)N1CCOCC1)c1ccc(OC)cc1,inactive: -3.63%
12,C[N+]1=C2C=CC=CC=C2SC12C([N+](=O)[O-])=CC([N+](=O)[O-])=C[C-]2[N+](=O)[O-] (centres undefined),inactive: -4.41%
13,Nc1ccc([As](=O)(O)c2ccc(N)cc2)cc1,inactive: 19.8%
14,CC1CCN(C(=O)Oc2c(Cl)cc(Cl)c3cccnc23)CC1,inactive: -0.902%
15,CC(C)=N/N=C(\N)N[N+](=O)[O-],inactive: 25.2%
16,COc1ccc(C2=NCC(CBr)S2)cc1 (centres undefined),inactive: -3.27%
17,O=[N+]([O-])c1cc([N+](=O)[O-])c(CCNc2ccccc2)c([N+](=O)[O-])c1,inactive: -40.4%
18,CCc1nc2c(n1)c1c(non1O)c1c2no[n+]1[O-],inactive: -22.8%
19,Cc1ccc(NP(=O)(Oc2ccccc2)Oc2ccccc2)nc1,inactive: -5.47%
20,CC(=O)N1C2C3N(C(C)=O)C1C1N(C(C)=O)C(C(N1C(C)=O)N3C(C)=O)N2C(C)=O,inactive: 25.5%
21,O=[N+]([O-])c1cccc2n[nH]nc12,inactive: 16.8%
22,O=[N+]([O-])c1ncn(CCn2ncnc2[N+](=O)[O-])n1,inactive: 7.27%
23,CC(C)(C)C(=O)NC(Sc1ccncn1)C(Cl)(Cl)Cl (centres undefined),inactive: 4%
24,O=C(O)CNc1ccc([As](=O)(O)O)cc1,inactive: -1.04%
25,O=[N+]([O-])c1cccc(NC2=NCC(CBr)S2)c1 (centres undefined),inactive: 19.4%

row,Compound,"activity change, negative = inhibition"
1,O=C(Nc1cc([As](=O)(O)O)ccc1O)c1ccccc1,inactive: 11%
2,O=[N+]([O-])c1cc([N+](=O)[O-])c(CCN2CCOCC2)c([N+](=O)[O-])c1,inactive: -10.1%
3,Nc1cccc2ccc([As](=O)(O)O)cc12,inactive: -3.58%
4,CCN(N=Nc1nonc1N)c1nonc1N,inactive: -3.45%
5,O=P(Nc1nc2ccc(Cl)cc2s1)(c1ccccc1)c1ccccc1,inactive: 6.27%
6,CC(=O)Nc1ccc([As](=O)(O)O)cc1,inactive: -13.3%
7,O=C(O)c1ccccc1[As](=O)(O)O,inactive: 4.87%
8,Cc1ccc(NP(=O)(Oc2ccccc2F)Oc2ccccc2F)nc1,inactive: 16.5%
9,Cc1cc(SC(NC(=O)c2ccc(F)cc2)C(Cl)(Cl)Cl)ncn1 (centres undefined),inactive: -7.98%
10,CCOP(=O)(Nc1ccccc1)OCC,inactive: -3.54% and inactive: -6.57%
11,O=C(NC(Sc1ccncn1)C(Cl)(Cl)Cl)c1ccccc1 (centres undefined),inactive: 9.19%
12,Oc1ccccc1CNc1ccccn1,inactive: 18.1%
13,Nc1cc(N)c2nonc2c1[N+](=O)[O-],inactive: -8.27%
14,CC(C)CC(=O)NC(Sc1ccc(Cl)cc1)C(Cl)(Cl)Cl (centres undefined),inactive: -10.9%
15,Cc1ccc(N/C(=N/P(=O)(N2CCOCC2)N2CCOCC2)N2CCOCC2)cc1,inactive: -3.08%
16,NC(=O)c1cc([N+](=O)[O-])cc([N+](=O)[O-])c1N,inactive: 36.5%
17,CN1CCCC(OC(=O)C(c2ccccc2)c2ccccc2)C1 (centres undefined),inactive: 14.6%
18,Clc1ccc(Cl)c(NC2=NCC(CBr)S2)c1 (centres undefined),inactive: 15.6%
19,Cc1ccc(OP(=O)(Nc2nccs2)Oc2ccc(C)cc2)cc1,inactive: -2.52%
20,COc1ccccc1OP(=O)(Nc1ccc(C)cn1)Oc1ccccc1OC,inactive: 2.44%
21,COc1ccc(N/C(=N/P(=O)(N2CCOCC2)N2CCOCC2)N2CCOCC2)cc1,inactive: -2.55%
22,Cc1c2c(nc3ccccc13)SC(C(Cl)Cl)C2 (centres undefined),inactive: -1.63%
23,Cc1cc(=O)[nH]c(N[N+](=O)[O-])n1,inactive: -4.72%
24,O=C(OC1CN2CCC1CC2)C12CC3CC(CC(C3)C1)C2 (centres undefined),inactive: 6.03%
25,COc1cc(I)ccc1[As](=O)(O)O,inactive: 2.89%

row,Compound,"activity change, negative = inhibition"
1,COc1ccc2nc(NP(=O)(c3ccccc3)c3ccccc3)sc2c1,inactive: -2.84%
2,ClCCSc1nnc(-c2cccnc2)o1,inactive: -4.32%
3,CC(C)c1ccc(OP(=O)(Nc2ccccn2)Oc2ccccc2F)cc1 (centres undefined),inactive: -6.46%
4,O=[N+]([O-])c1cc([N+](=O)[O-])c(-c2ccn[nH]2)s1,inactive: -12.7%
5,CC(C)NC(=O)NP(=O)(Oc1ccccc1)Oc1ccccc1,inactive: 2.33%
6,CCN(CC)C(=S)SC(NC=O)C(Cl)(Cl)Cl (centres undefined),inactive: -3.93%
7,COc1cc(C(=O)NCC2(N3CCOCC3)CCCCC2)ccc1OCC(C)C,inactive: -4.07%
8,O=[As](O)(c1ccc(O)cc1)c1ccccc1O,inactive: 22.1%
9,C[As](=O)(O)c1cccc(C(=O)O)c1,inactive: 21.1%
10,Cc1ccc(OP(=O)(Nc2ccc([N+](=O)[O-])cn2)Oc2ccc(C)cc2)cc1,inactive: -8.35%
11,Cc1ccc2nc3c(c(C)c2c1)CC(C(Cl)Cl)S3 (centres undefined),inactive: -9.89%
12,CCOC(=O)Nc1cccc([As](=O)(O)O)c1,inactive: 0.829%
13,Cc1cc(SC(NC=O)C(Cl)(Cl)Cl)ncn1 (centres undefined),inactive: 7.51%
14,O=P(Nc1ccccn1)(c1cccc2ccccc12)c1cccc2ccccc12,inactive: 3.19%
15,O=[N+]([O-])c1ccc(Nc2ccc(Oc3ccc([N+](=O)[O-])cc3[N+](=O)[O-])cc2)c([N+](=O)[O-])c1,inactive: 3.56%
16,CCOC(=O)Nc1ccc([As](=O)(O)O)c(O)c1,inactive: -7.59%
17,Cc1cc(SC(NC(=O)c2ccccc2)C(Cl)(Cl)Cl)nc(C(C)C)n1 (centres undefined),inactive: 3.58%
18,CCCCOc1ccc(C(=O)NCC2(N3CCCCC3)CCCCC2)cc1OC,inactive: 0.651%
19,O=C(OC1CN2CCC1CC2)c1cccc([N+](=O)[O-])c1 (centres undefined),inactive: 11.7%
20,CCOC(=O)c1ccc(NC(=O)C(C)(CCl)SC)cc1 (centres undefined),inactive: -4.59%
21,CCC(C)N(CC(C)C)C(=S)SC(NC(C)=O)C(Cl)(Cl)Cl (centres undefined),inactive: 27.8%
22,COP1(=S)c2c(C)nn(CCC#N)c2N=C(c2ccc(F)cc2)N1C (centres undefined),inactive: 2.49%
23,O=C(Nc1ccncc1[N+](=O)[O-])c1ccc([N+](=O)[O-])cc1[N+](=O)[O-],inactive: 0.604%
24,O=C(COc1ccccc1)OC1CN2CCC1CC2 (centres undefined),inactive: 5.8%
